Chains of the proteins cited; added tags and fusions are not shown. Residues count along the entry.
UniProt Q01650, whole entry: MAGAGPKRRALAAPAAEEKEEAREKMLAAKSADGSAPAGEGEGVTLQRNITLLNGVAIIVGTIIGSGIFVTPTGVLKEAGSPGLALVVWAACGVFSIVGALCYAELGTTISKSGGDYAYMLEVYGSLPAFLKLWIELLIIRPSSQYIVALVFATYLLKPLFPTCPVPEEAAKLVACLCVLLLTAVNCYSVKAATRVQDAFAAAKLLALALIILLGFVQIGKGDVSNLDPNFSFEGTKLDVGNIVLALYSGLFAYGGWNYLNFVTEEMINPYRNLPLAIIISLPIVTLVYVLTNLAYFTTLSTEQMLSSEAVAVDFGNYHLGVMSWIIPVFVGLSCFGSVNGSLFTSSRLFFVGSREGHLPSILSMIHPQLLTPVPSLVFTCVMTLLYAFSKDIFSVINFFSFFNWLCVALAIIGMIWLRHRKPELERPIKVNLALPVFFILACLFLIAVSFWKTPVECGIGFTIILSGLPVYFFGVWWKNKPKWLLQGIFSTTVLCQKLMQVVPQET
UniProt Q9UHI5, whole entry: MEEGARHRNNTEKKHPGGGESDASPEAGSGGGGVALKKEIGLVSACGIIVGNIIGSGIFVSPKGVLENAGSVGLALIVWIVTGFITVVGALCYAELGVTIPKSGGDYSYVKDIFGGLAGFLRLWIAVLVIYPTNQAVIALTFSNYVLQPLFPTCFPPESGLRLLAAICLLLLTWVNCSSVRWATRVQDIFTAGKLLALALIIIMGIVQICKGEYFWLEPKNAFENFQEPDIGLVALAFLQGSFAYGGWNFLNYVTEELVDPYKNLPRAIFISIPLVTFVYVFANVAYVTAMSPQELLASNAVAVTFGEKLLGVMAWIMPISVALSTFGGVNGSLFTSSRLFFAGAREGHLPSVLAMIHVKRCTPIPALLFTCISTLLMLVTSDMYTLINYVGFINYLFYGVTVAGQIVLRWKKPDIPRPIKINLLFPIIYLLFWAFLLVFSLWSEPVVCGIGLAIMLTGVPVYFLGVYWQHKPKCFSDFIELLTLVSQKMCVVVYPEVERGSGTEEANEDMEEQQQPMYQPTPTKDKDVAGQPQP
UniProt P08195, 102-630 partner: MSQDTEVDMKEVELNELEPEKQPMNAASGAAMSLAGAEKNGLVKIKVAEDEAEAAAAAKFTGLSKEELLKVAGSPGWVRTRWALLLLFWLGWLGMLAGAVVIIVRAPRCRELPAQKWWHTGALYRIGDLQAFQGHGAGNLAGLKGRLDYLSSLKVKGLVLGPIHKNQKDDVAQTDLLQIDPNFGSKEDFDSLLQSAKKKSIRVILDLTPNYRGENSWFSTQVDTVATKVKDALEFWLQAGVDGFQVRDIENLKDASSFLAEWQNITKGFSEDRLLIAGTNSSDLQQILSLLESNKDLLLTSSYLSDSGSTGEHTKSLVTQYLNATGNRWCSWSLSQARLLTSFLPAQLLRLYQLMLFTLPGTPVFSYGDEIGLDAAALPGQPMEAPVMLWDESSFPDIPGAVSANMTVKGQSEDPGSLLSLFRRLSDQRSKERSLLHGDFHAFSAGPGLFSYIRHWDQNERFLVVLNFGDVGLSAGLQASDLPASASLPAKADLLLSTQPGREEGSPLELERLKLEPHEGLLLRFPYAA

In patent US20110150767A1, “ALPHA-SUBSTITUTED AND ALPHA-UNSUBSTITUTED AROMATIC AMINO ACID DERIVATIVES AND COMPOSITIONS THEREOF FOR USE TO TREAT, DIAGNOSE, OR MONITOR A MEDICAL CONDITION” (priority 2009, published 2011):

Experiments:
[1] = target: human L-type amino acid transporter 1 (LAT1; S2-hLAT1 cells) (Homo sapiens, UniProt Q01650); test: Inhibition of L-[14C]leucine uptake in S2-LAT1 cells; settings: read-out: IC50 (μM) S2-LAT1, inhibition of 1.0 μM L-[14C]leucine uptake, 1.0 min, 37° C., NI = no inhibition at 100 μM, tested form: HCl
Method: (§1) The establishment and characterization of mammalian cell lines expressing human L-type amino acid transporterss (i.e. S2-hLAT1 and S2-hLAT2) has been previously described (Morimoto et al., Journal of Pharmacological Sciences, 2008, 108, 505-516).
(§2) General test procedures are as follows: All test compounds were dissolved in dimethyl sulfoxide (DMSO) to prepare stock solutions at the concentrations of 0.05, 0.5, 5.0 and 50 mM; next, these stock solutions were used and diluted with uptake solution to make final test concentrations of 0.10, 1.00, 10.0 and 100 μM, respectively. Therefore, all compounds used for uptake experiment were in uptake solution containing 0.2% DMSO; experiments are performed in triplicate for each concentration. For control uptake, only DMSO was added into the uptake solution to a final concentration of 0.2%.
(§3) S2-LAT1 and S2-LAT2 cells were seeded (1.3×10^5 cells/well) into 24-well plates and cultured at 33° C. (5% CO2) for 2-3 days until confluent (90%-100% confluence). Uptake experiments were performed at 37° C. The culture medium was removed and washed 3 times with uptake solution (37° C.; Hank's Na^+ free buffer consisting of 125 mM choline chloride, 4.8 mM KCl, 1.3 mM CaCl2, 1.2 mM MgCl2, 25.0 mM HEPES, and 5.0 mM Tris, pH 7.4, supplemented with D-glucose (5.6 mM). The cells were equilibrated in uptake solution (300 μL; 37° C.) for 12 min. The equilibrated solution was removed and uptake solution containing radio-labeled compound (1.0 μM L-[^14C] Leucine) with or without test compound (300 μL) was added to the cells (1.0 min). The test solution was removed and the cells washed 3 times with ice-cold uptake solution. The cells are then solubilized with 0.1N NaOH (0.5 mL) and transferred to scintillation vials. Liquid scintillation fluid (3.0 mL; aquasol-2) was added, mixed and substrate accumulation was measured by counting radioactivity via liquid scintillation counting (LSC; LSC6100, Aloka, Tokyo). The uptake value and % of inhibition were calculated to afford IC50 values.

[2] = target: human L-type amino acid transporter 2 (LAT2; S2-hLAT2 cells) (Homo sapiens, UniProt Q9UHI5); test: Inhibition of L-[14C]leucine uptake in S2-LAT2 cells; settings: read-out: IC50 (μM) S2-LAT2, inhibition of 1.0 μM L-[14C]leucine uptake, 1.0 min, 37° C., NI = no inhibition at 100 μM, tested form: HCl
Method: as §1, §2, §3

For `N[C@@H](Cc1cc(I)c(OCc2cc(C(F)(F)F)ccc2C(F)(F)F)c(I)c1)C(=O)O`, the IC50 [1] was greater than 100 µM and the IC50 [2] was greater than 100 µM.
`CCOc1cc(COc2c(Br)cc(C[C@H](N)C(=O)O)cc2Br)cc(OCC)c1OCC` gave an IC50 [1] of 2.1 µM and an IC50 [2] greater than 100 µM.
In the case of `N[C@@H](Cc1cc(I)c(OCc2ccc(F)cc2)c(I)c1)C(=O)O`, the IC50 [1] is reported as 10 µM and the IC50 [2] is reported as 11.1 µM.
`N[C@@H](Cc1cc(Br)c(OCc2cccc(C(F)(F)F)c2)c(Br)c1)C(=O)O` was tested, and the IC50 [1] was greater than 100 µM and the IC50 [2] was greater than 100 µM.
Work on `N[C@@H](Cc1cc(I)c(OCCc2cccc(F)c2)c(I)c1)C(=O)O` yielded an IC50 [1] of 67 µM and an IC50 [2] greater than 100 µM.
In the case of `COc1cccc(CCOc2c(Cl)cc(C[C@H](N)C(=O)O)cc2Cl)c1`, the IC50 [1] is reported as 4.2 µM and the IC50 [2] is reported as 86.7 µM.
`COc1ccc(COc2c(I)cc(C[C@H](N)C(=O)O)cc2I)c(OC)n1` showed an IC50 [1] of 15.4 µM and an IC50 [2] greater than 100 µM.
`COc1cccc(COc2c(I)cc(C[C@H](N)C(=O)O)cc2I)c1OC` showed an IC50 [1] of 52.8 µM and an IC50 [2] greater than 100 µM.
Work on `N[C@@H](Cc1cc(Br)c(OCc2ccncc2)c(Br)c1)C(=O)O` yielded an IC50 [1] greater than 100 µM and an IC50 [2] greater than 100 µM.
Work on `COc1cc(Cl)ccc1COc1c(Br)cc(C[C@H](N)C(=O)O)cc1Br` yielded an IC50 [1] of 6.7 µM and an IC50 [2] greater than 100 µM.
`N[C@@H](Cc1cc(Br)c(OCc2ccccc2F)c(Br)c1)C(=O)O` showed an IC50 [1] greater than 100 µM and an IC50 [2] of 69.1 µM.
Work on `N[C@@H](Cc1cc(Cl)c(OCc2ccc(C(F)(F)F)cc2)c(Cl)c1)C(=O)O` yielded an IC50 [1] of 10.1 µM and an IC50 [2] of 14.4 µM.
Work on `COc1cccc(CCOc2c(I)cc(C[C@H](N)C(=O)O)cc2I)c1` yielded an IC50 [1] of 7.1 µM and an IC50 [2] greater than 100 µM.
`COc1cccc(COc2c(Cl)cc(C[C@H](N)C(=O)O)cc2Cl)c1` was tested, and the IC50 [1] was 13.6 µM and the IC50 [2] was 28.3 µM.
With `N[C@@H](Cc1cc(Cl)c(OCc2ccccc2C(F)(F)F)c(Cl)c1)C(=O)O` the IC50 [1] was 19.4 µM and the IC50 [2] was greater than 100 µM.
Compound `N[C@@H](Cc1cc(I)c(OCCc2cccc(C(F)(F)F)c2)c(I)c1)C(=O)O` has an IC50 [1] greater than 100 µM and an IC50 [2] greater than 100 µM.
`N[C@@H](Cc1cc(Cl)c(OCc2ccncc2)c(Cl)c1)C(=O)O` was tested, and the IC50 [1] was greater than 100 µM and the IC50 [2] was greater than 100 µM.
`N[C@@H](Cc1cc(Br)c(OCCc2ccc(F)cc2)c(Br)c1)C(=O)O` showed an IC50 [1] of 42.3 µM and an IC50 [2] greater than 100 µM.
`COc1ccccc1COc1c(Cl)cc(C[C@H](N)C(=O)O)cc1Cl` showed an IC50 [1] of 5.8 µM and an IC50 [2] of 93.6 µM.
`N[C@@H](Cc1cc(I)c(OCc2ccncc2)c(I)c1)C(=O)O` showed an IC50 [1] of 57 µM and an IC50 [2] greater than 100 µM.
Compound `COc1ccc(COc2c(Br)cc(C[C@H](N)C(=O)O)cc2Br)c(OC)c1` has an IC50 [1] of 0.42 µM and an IC50 [2] of 3.3 µM.
`COc1ccc(COc2c(I)cc(C[C@H](N)C(=O)O)cc2I)cc1[N+](=O)[O-]` showed an IC50 [1] of 64.5 µM and an IC50 [2] greater than 100 µM.
Compound `N[C@@H](Cc1cc(Br)c(OCCc2ccc([N+](=O)[O-])cc2)c(Br)c1)C(=O)O` has an IC50 [1] of 19.5 µM and an IC50 [2] greater than 100 µM.
For `N[C@@H](Cc1cc(Cl)c(OCc2ccccn2)c(Cl)c1)C(=O)O`, the IC50 [1] was 93.3 µM and the IC50 [2] was greater than 100 µM.
Compound `COc1ccc(COc2c(Br)cc(C[C@H](N)C(=O)O)cc2Br)c(OC)n1` has an IC50 [1] of 5.2 µM and an IC50 [2] of 87.5 µM.
